Molecular target: SARM1 (50-724) (Homo sapiens, UniProt Q6SZW1)
Assay: SARM1 (50-724) enzymatic assay
Conditions: SARM1 inhibitory activity; purified SARM1 (50-724) 2 nM, 200 μM NMN activator, 100 μM NAD+ substrate, LC-MS/MS

The chains behind the UniProt entries cited, without tags or fusion partners. Residues count along the entry.
UniProt Q6SZW1, 50-724 limits assumed: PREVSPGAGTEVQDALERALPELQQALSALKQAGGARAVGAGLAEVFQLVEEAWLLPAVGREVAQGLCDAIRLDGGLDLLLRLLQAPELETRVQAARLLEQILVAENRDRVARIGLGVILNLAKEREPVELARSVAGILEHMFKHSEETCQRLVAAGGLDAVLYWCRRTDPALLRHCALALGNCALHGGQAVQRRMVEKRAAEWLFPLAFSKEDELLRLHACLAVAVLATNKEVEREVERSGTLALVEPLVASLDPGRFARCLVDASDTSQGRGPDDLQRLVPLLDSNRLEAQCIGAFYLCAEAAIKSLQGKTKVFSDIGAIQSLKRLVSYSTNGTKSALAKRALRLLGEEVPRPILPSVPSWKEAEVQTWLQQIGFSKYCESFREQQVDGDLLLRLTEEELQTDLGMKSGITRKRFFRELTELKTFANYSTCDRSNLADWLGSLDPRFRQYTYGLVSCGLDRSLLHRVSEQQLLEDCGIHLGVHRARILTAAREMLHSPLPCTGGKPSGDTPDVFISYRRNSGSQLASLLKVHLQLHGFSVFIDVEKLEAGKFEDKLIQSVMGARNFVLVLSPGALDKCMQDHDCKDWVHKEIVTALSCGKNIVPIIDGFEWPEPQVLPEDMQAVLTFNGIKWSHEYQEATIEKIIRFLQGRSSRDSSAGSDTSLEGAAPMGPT

Question: `O=C1Nc2cc(NS(=O)(=O)c3cccc(Cl)c3Cl)ccc2C12CCC2` was tested. Which IC50 did it give?
Answer: < 100 nM

— patent publication US20250320184A1 (SIRONAX LTD., priority 2022, published 2025)
